# Values quoted from earlier work as cited in patent publication US20120190751A1, “COMPOUNDS FOR TREATMENTS OF INFLAMMATION” (ANA-MAR AB, priority 2009, published 2012).
# Amino acid sequences for entries named in this document (tags omitted).
# UniProt P41595, whole entry: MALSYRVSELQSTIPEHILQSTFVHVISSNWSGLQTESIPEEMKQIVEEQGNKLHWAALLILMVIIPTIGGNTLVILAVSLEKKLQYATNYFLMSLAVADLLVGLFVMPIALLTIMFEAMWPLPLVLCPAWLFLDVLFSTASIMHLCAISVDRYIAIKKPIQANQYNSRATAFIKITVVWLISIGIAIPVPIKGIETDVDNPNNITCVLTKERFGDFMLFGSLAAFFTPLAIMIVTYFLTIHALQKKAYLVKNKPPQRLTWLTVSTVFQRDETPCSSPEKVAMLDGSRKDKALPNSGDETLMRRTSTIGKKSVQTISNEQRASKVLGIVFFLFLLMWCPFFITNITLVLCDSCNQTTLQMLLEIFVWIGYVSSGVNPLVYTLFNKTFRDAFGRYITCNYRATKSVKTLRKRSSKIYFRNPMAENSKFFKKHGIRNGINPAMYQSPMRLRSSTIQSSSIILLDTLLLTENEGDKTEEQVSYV
# Target: 5HT2B receptor (Homo sapiens, UniProt P41595)
# Conditions: 5HT2B receptor antagonists, Table 1; cited from earlier work
row,Structure (SMILES),Affinity
1,"CN1CCN2c3ccccc3Cc3ccccc3C2C1 (racemic) [mianserin, (±)-2-methyl-1,2,3,4,10,14b-hexahydrodibenzo[c,f]pyrazino[1,2-a]-azepine]",7.9-8.8 pKi
2,CSc1ccc2c(c1)C(N1CCN(C)CC1)Cc1ccccc1S2 (stereo not drawn) [methiothepin],8.7-9.2 pKi
3,"O=c1n(CCCN2CCN(c3cccc(Cl)c3)CC2)nc2ccccn12 [trazodone, 8-[3-[4-(3-chlorophenyl)piperazin-1-yl]propyl]-6,8,9-triazabicyclo[4.3.0]nona-2,4,9-trien-7-one]",7.1 pKi
